From PMC2987690

Target: Na,K-ATPase α1 subunit (endogenous, MDCK cells) (dog (endogenous in MDCK)) (UniProt P50997)
Test: co-IP

## Na,K-ATPase β1 subunit (endogenous, MDCK cells) (from UniProt P06583 1-303) (natural protein)
  percent of high-mannose β1 subunits bound to α1, YFP-β1-expressing cells: 11%
